Data from patent publication US20260382729A1, “HETEROBIFUNCTIONAL COMPOUNDS AS p53 ACETYLATORS” (published 2026).

Assays:
[1] = test system: p21 protein expression in NCI-H1299 (p53Y220C) cells; experiment: p21 protein expression, Western blot, NCI-H1299 (p53Y220C); settings: 5 μM, 24 h
Experimental: (§1) FIG. 5. Design and testing of initial p53Y220C-targeting AceTACs. (A) Crystal structure of the p53Y220C-PK9323 complex (PDB ID: 6SI0).^25 The cross-section of the occupied binding pocket is highlighted and the structure of PK9323 is shown. […] . (D) Representative Western blot (WB) results of PK9323 and compounds 1-4 on inducing p21 protein expression from three independent experiments. H1299 (p53Y220C) stable cells were treated with the indicated compounds at the indicated concentrations for 24 h. (E) Chemical structure of compounds 5-9. (F) Representative WB results of compounds 5-9 on inducing p21 protein expression from three independent experiments. NCI-H1299 (p53Y220C) stable cells were treated with the indicated compounds at the indicated concentrations for 24 h. (G) Quantification of p21 induction (from panels 1D and 1F) by PK9323 and compounds 1-9 at 24 h time point, following 5 μM treatment (from three independent experiments). (H) Left, representative WB results of the p53K382ac level following the treatment with the indicated compounds at 5 μM for 8 h from three independent experiments. NCI-H1299 (p53Y220C) stable cells were treated with the indicated compounds for 8 h followed by endogenous immunoprecipitation (IP) FLAG pulldown. Right, quantification of the normalized p53K382ac level (p53K382ac level over total p53 protein level) following the treatment with the indicated compounds at 5 M for 8 h (from three independent experiments).
To test these compounds, an NCI-H1299 cell line stably expressing the FLAG tagged p53Y220C mutant, NCI-H1299 (p53Y220C) was generated. The background NCI-H1299 cell line is a p53 null cell line. […] The lack of significant effects could be due to that the extra methyl group on the terminal amine and the amide functionality in compounds 1-4 might impact binding of these compounds to p53Y220C, based on the previously reported structure—activity relationship (SAR) results for the PK9323 series. 25, 26 Therefore, a second set of AceTACs, compounds 5-9 was designed, by removing the extra methyl group and amide functionality (FIG. 5E, Scheme S2). Compounds 5-9 increased the expression of p21 by about 2-fold compared to PK9323 at the same concentration (FIG. 5F-G). Particularly, compound 7 (PEG-3) at 5 μM induced the most significant acetylation of p53Y220C lysine 382 (p53K382ac) among these compounds (with PK9323 as a control) at 8 h treatment (FIG. 5H).
NCI-H1299 (CRL-5803), BxPC3 (CRL-1687) and U-20S (HTB-96) were purchased from the American Tissue Culture Collection (ATCC, Manassas, VA). In addition, NUGC-3 were obtained from the Japan Health Science Research Resources Bank (JCRB, JCRB0822). […]

[2] = test system: p21 protein level in BxPC3 cells; experiment: p21 induction, Western blot, BxPC3 (Example 85)
Experimental: Example 85. P21 Induction of p53Y220C Acetylators (FIG. 1)
(§2) NCI-H1299 and BxPC3 cell lines were cultivated in RPMI-1640 medium while Huh7 cell line was supplemented in DMEM medium with 10% FBS, 100 units/mL of penicillin/streptomycin. NCI-H1299 stable cell line expressing p53Y220C-FLAG was cultivated in RPMI-1640 medium supplemented with 10% FBS, 100 units/mL of penicillin/streptomycin and G418 (500 g/mL).
(§3) Cells were lysed on ice for 30 min with the lysis buffer (50 mM Tris pH 7.4, 1% IGEPAL CA-630, 150 mM NaCl, 1 mM EDTA, and 1 mM AESBF), supplemented with protease and phosphatase inhibitor cocktail (A32961, Thermo Fisher Scientific). The sample was centrifuged at 12 000 g for 10 min at 4 °C to get supernatant as cell lysate. The primary antibodies used were p53 (Cat #10442-1-AP, Proteintech), p21 (Cat #2947S, Cell Signaling Technology), acetyl-382 lysing p53 (p53382Kac) (Cat #2525L, Cell Signaling Technology), DYKDDDDK (FLAG) Tag (Cat #14793S, Cell Signaling Technology) and Vinculin (Cat #4650S, Cell Signaling Technology). LI-COR secondary antibodies (IRDye® Donkey anti-rabbit IgG) was used to obtain protein signals, which were then analyzed by Image Studio Lite software (LI-COR).

[3] = test system: p53Y220C (p53-K382 acetylation); experiment: p53-K382 acetylation in an IP assay (Example 86); settings: compared with DMSO and PK9323
Source text: Example 86. P53-Acetylation of p53Y220C Acetylators (FIG. 2)
Compared with DMSO and the p53Y220C small-molecule binder PK9323, NS131-8, NS131-9, NS131-10, NS131-11 and NS131-12 induced p53-K382 acetylation in an IP assay.
as §2, §3

[4] = test system: p53Y220C K382 acetylation (p53K382ac) in NCI-H1299 (p53Y220C) cells; experiment: p53K382ac level, Western blot / FLAG pull-down, NCI-H1299 (p53Y220C); settings: 5 μM, 8 h, FLAG pulldown, PK9323 as control
Experimental: as §1, with “NCI-H1299 (p53Y220C) stable cells were treated with the indicated compounds at the indicated concentrations for 24 h.” left out, “(H) Left, representative WB results of the p53K382ac level following the treatment with the indicated compounds at 5 μM for 8 h from three independent experiments. NCI-H1299 (p53Y220C) stable cells were treated with the indicated compounds for 8 h followed by endogenous immunoprecipitation (IP) FLAG pulldown.” left out
FIG. 6. […] Right, quantification of the normalized p53K382ac level on the left. […] Right, quantification of normalized p300 and p53K382ac levels from three independent experiments shown on the left. […] Right, quantification of normalized p300 and p53K382ac levels from three independent experiments shown on the left. […]

[5] = test system: p53Y220C (p53-K382 acetylation); experiment: time-dependent p53Y220C acetylation, Western blot (Example 87); settings: 2 h to 24 h
Experimental: Example 87. NS131-10 Induces Time-Dependent p53Y220C Acetylation (FIG. 3)
NS131-10 induced p53-K382 acetylation starting from 2 h and more significant acetylation at 24 h.
as §3

| SMILES | p21 protein expression [1] | p21 protein level induction [2] | p53-K382 acetylation [3] | acetylation of p53Y220C lysine 382 (p53K382ac) [4] | p53-K382 acetylation, time dependence [5] |
| --- | --- | --- | --- | --- | --- |
| CCn1c2ccc(CN(C)C(=O)CCOCCn3cc(COc4ccc(CCc5nc6cc(-c7c(C)noc7C)ccc6n5CCN5CCOCC5)cc4F)nn3)cc2c2ccc(-c3cscn3)cc21 | did not |  |  |  |  |
| CCn1c2ccc(CNCCOCCOCCOCCOCCn3cc(COc4ccc(CCc5nc6cc(-c7c(C)noc7C)ccc6n5CCN5CCOCC5)cc4F)nn3)cc2c2ccc(-c3cscn3)cc21 |  | induced the p21 protein level in BxPC3 cells in a concentration-dependent manner | induced p53-K382 acetylation |  |  |
| CCn1c2ccc(CNCCOCCn3cc(COc4ccc(CCc5nc6cc(-c7c(C)noc7C)ccc6n5CCN5CCOCC5)cc4F)nn3)cc2c2ccc(-c3cscn3)cc21 |  | induced the p21 protein level in BxPC3 cells in a concentration-dependent manner | induced p53-K382 acetylation |  |  |
| CCn1c2ccc(CNCCOCCOCCn3cc(COc4ccc(CCc5nc6cc(-c7c(C)noc7C)ccc6n5CCN5CCOCC5)cc4F)nn3)cc2c2ccc(-c3cscn3)cc21 |  | induced the p21 protein level in BxPC3 cells in a concentration-dependent manner | induced p53-K382 acetylation |  |  |
| CCn1c2ccc(CN(C)C(=O)CCOCCOCCn3cc(COc4ccc(CCc5nc6cc(-c7c(C)noc7C)ccc6n5CCN5CCOCC5)cc4F)nn3)cc2c2ccc(-c3cscn3)cc21 | did not |  |  |  |  |
| CCn1c2ccc(CNCCOCCOCCOCCn3cc(COc4ccc(CCc5nc6cc(-c7c(C)noc7C)ccc6n5CCN5CCOCC5)cc4F)nn3)cc2c2ccc(-c3cscn3)cc21 |  | induced the p21 protein level in BxPC3 cells in a concentration-dependent manner |  | induced the most significant acetylation | induced p53-K382 acetylation starting from 2 h and more significant acetylation at 24 h |
| CCn1c2ccc(CNCCOCCOCCOCCOCCOCCn3cc(COc4ccc(CCc5nc6cc(-c7c(C)noc7C)ccc6n5CCN5CCOCC5)cc4F)nn3)cc2c2ccc(-c3cscn3)cc21 |  | induced the p21 protein level in BxPC3 cells in a concentration-dependent manner | induced p53-K382 acetylation |  |  |
| CCn1c2ccc(CN(C)C(=O)COCCOCCOCCn3cc(COc4ccc(CCc5nc6cc(-c7c(C)noc7C)ccc6n5CCN5CCOCC5)cc4F)nn3)cc2c2ccc(-c3cscn3)cc21 | modestly increased p21 expression | slightly induced the p21 protein level |  |  |  |
| CCn1c2ccc(CN(C)C(=O)COCCOCCOCCOCCn3cc(COc4ccc(CCc5nc6cc(-c7c(C)noc7C)ccc6n5CCN5CCOCC5)cc4F)nn3)cc2c2ccc(-c3cscn3)cc21 | modestly increased p21 expression | slightly induced the p21 protein level |  |  |  |
